# ChEMBL document CHEMBL5321226, “Structure-directed identification of pyridine-2-methylamine derivatives as MmpL3 inhibitors for use as antitubercular agents” (Eur J Med Chem, 2023)
# Test: Metabolic stability in human liver microsomes assessed as intrinsic clearance and mesured upto 60 mins in presence of NADPH
# Type: ADME, Microsome
# Settings: read-out: CLH
compound,measurement,value
O=C(O)Cc1ccccc1Nc1c(Cl)cccc1Cl [DICLOFENAC],microsomal CLint,180 µL/min/mg
